# Experimental data as given in PubChem BioAssay AID583 (Sanford-Burnham Center for Chemical Genomics, 2007).
# Protein sequences, listed by entry. Tags and fused reporters are not part of them.
# UniProt P0DMV8, whole entry: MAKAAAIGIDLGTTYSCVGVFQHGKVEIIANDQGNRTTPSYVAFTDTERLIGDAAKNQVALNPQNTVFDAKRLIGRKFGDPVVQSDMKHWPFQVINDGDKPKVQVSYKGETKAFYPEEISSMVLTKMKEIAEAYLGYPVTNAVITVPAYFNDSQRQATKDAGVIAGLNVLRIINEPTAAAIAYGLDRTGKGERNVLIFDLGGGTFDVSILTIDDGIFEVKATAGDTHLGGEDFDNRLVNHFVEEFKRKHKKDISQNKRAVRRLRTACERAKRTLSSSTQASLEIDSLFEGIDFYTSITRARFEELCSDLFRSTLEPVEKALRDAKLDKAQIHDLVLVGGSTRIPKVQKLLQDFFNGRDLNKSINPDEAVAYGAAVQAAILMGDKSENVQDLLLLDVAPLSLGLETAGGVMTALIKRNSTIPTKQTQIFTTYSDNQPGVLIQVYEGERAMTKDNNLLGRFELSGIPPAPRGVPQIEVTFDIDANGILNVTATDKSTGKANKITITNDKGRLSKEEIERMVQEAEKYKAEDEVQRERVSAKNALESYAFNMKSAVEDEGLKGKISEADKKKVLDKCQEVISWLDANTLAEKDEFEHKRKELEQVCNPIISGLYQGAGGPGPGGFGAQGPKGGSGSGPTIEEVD
# “And” between values parts separate entries of the source, which are not always exact repeats. Equal values may be shown once. This is a selection; strong and weak results do not stand in their true shares. The source made the active and inactive calls. Cut-off read from the data, not from the text of the source: active = displacement above about 50%; inactive = the rest.
# Target: Heat shock 70 kDa protein 1A (Homo sapiens) (UniProt P0DMV8)
# Assay: Hsp70 inhibitors, probe displacement, primary screen, biochemical, fluorescence polarization (AID 583);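 note: plate controls were vehicle for no effect and reference ligand for full effect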
# Conditions: mP, at 20 µM, stronger effect = higher value
row,Structure (SMILES),displacement
1,Cc1nc2ccc3ccccc3c2s1.O=[N+]([O-])c1cc([N+](=O)[O-])c(O)c([N+](=O)[O-])c1,inactive: -2.8%
2,COc1ccccc1OP(C)(=O)Nc1c(C)cccc1C (stereo unspecified),inactive: 0.1%
3,CP(=O)(Oc1ccccc1)Oc1ccccc1,inactive: -0.9%
4,Cc1cc(C)cc(OP(C)(=O)Nc2ccccn2)c1 (stereo unspecified),inactive: 2.7%
5,CP(=O)(Oc1ccc(Cl)cc1)Oc1ccc(Cl)cc1,inactive: -0.7%
6,Cc1ccc(C)c(NP(C)(=O)Oc2ccccc2)c1 (stereo unspecified),inactive: 0.9%
7,COc1ccc(OP(C)(=O)Nc2cccc(F)c2)cc1 (stereo unspecified),inactive: -0.9%
8,COc1ccccc1OP(C)(=O)Nc1ccc(C)cc1 (stereo unspecified),inactive: -2.2%
9,Cc1ccc(NP(C)(=O)Oc2ccccc2)c(C)c1 (stereo unspecified),inactive: 3.8%
10,CN(C)CCOC(=O)C(O)(c1ccccc1)c1ccccc1,inactive: -0.9%
11,CP(=S)(Nn1cnnc1)Oc1ccccc1 (stereo unspecified),inactive: 2.8%
12,CP(=O)(NC(=O)Nc1ccccc1)Oc1ccccc1 (stereo unspecified),inactive: 3%
13,CP(=O)(Oc1ccccc1F)Oc1ccccc1F,inactive: -0.4%
14,CP(=O)(Nc1ccccn1)Oc1ccc(Cl)cc1 (stereo unspecified),inactive: 6.4%
15,CCOP(C)(=S)SCC(=O)NC(C)C(=O)O (stereo unspecified),inactive: -5.1% and inactive: -4.9%
16,CP(=O)(Oc1ccccc1)N1CCOC1=O (stereo unspecified),inactive: -2.9%
17,COc1ccccc1OP(C)(=O)Nc1c(C)n(C)n(-c2ccccc2)c1=O (stereo unspecified),inactive: -2.8%
18,CCN(CC)CC(O)COC(=O)C(O)(c1ccccc1)C1CCCCC1 (stereo unspecified),inactive: -3.9%

row,Structure (SMILES),displacement
1,CP(=O)(Nc1ccc(Cl)cc1)Oc1ccc(F)cc1 (stereo unspecified),inactive: 8%
2,CC(C)(C)c1ccc(OP(C)(=O)O)cc1,inactive: 7.5%
3,CP(=O)(OC12CC3CC(CC(C3)C1)C2)OC12CC3CC(CC(C3)C1)C2,inactive: -2.4%
4,COc1ccccc1OP(C)(=O)Nc1ccc(C)c(C)c1 (stereo unspecified),inactive: -3.6%
5,Cc1nc2ccc3ccccc3c2o1.O=[N+]([O-])c1cc([N+](=O)[O-])c(O)c([N+](=O)[O-])c1,inactive: -0.4%
6,CN(C)CCOC(=O)C(O)(c1ccccc1)C1CCCC1 (stereo unspecified),inactive: -1.4%
7,COc1ccc(OP(C)(=O)Nc2ccccn2)cc1 (stereo unspecified),inactive: 2.7%
8,CP(=O)(Nc1ccccn1)Oc1ccccc1 (stereo unspecified),inactive: 5.1%
9,COc1ccccc1OP(C)(=O)Nc1ccc(C)cc1C (stereo unspecified),inactive: -3.6%
10,Cc1c(NP(C)(=O)Oc2ccc(C(C)C)cc2)c(=O)n(-c2ccccc2)n1C (stereo unspecified),inactive: -0.8%
11,CP(=O)(Nc1ccccc1F)Oc1ccccc1 (stereo unspecified),inactive: 4.4%
12,CP(=O)(Nc1ccccc1)Oc1ccc(F)cc1 (stereo unspecified),inactive: -6%
13,CCN(CC)CCCOC(=O)C(O)(c1ccccc1)C1CCCCC1 (stereo unspecified),inactive: -5%
14,CN(C)CCOC(=O)C(O)(c1ccccc1)C1CCCCC1 (stereo unspecified),inactive: 9.1%
15,CP(=O)(Oc1ccc(F)cc1)Oc1ccc(F)cc1,inactive: 4.5%
16,CCOP(C)(=S)SCC(=O)NC(C)(CC)C(=O)O (stereo unspecified),inactive: -3.5%
17,Cc1ccccc1NP(C)(=O)Nc1ccccc1C,inactive: -3.6%
18,CP(=O)(Nc1ccc2c(c1)OCCO2)Oc1ccccc1 (stereo unspecified),inactive: -0.6%
